Assay results reported in PubChem BioAssay AID886 (National Center for Advancing Translational Sciences (NCATS), 2007).
The entries are a selection whose mix differs from that of the whole data set. Some of these compounds have results that are not shown, active ones among them. Inconclusive results are not listed. Activity calls are given as the source filed them. Calls follow the shape of the dose curve; as a rule, active = well fitted inhibition curve with a large enough effect; inconclusive = small, poorly fitted or top-dose-only effect; inactive = no such curve, though single readings can be large or run the other way.

Sequences of proteins named here, by UniProt entry; tags and fusion partners are left off.
UniProt Q99714, whole entry: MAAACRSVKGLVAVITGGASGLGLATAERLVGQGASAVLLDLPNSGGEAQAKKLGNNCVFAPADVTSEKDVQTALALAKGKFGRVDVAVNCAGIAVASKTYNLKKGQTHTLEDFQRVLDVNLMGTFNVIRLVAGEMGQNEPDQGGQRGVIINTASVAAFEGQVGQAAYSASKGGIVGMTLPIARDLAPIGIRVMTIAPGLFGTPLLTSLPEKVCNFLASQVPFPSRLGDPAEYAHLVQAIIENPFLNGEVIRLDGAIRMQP

Molecular target: 3-hydroxyacyl-CoA dehydrogenase type-2 (Homo sapiens) (UniProt Q99714)
Experiment: qHTS Assay for Inhibitors of HADH2 (Hydroxyacyl-Coenzyme A Dehydrogenase, Type II); also: nearly all actives have a fitted effect of over 60% in size
Settings: recombinant HADH2, NADH fluorescence, beta-hydroxybutyryl-CoA; at 11.4 µM (top of the series) unless noted
% is scaled to controls: 0 for no effect and ±100 for the full control effect.

Row | Compound | activity change, negative = inhibition
1 | CN(C)c1cccc(C(=O)NCC2(N(C)C)CCCCC2)c1 | inactive: -6.36% [at 57.1 µM]
2 | CN1CCC[C@H](OC(=O)[C@](O)(c2ccccc2)C2CCCC2)C1 | inactive: 9.3%
3 | O=C(OC1CN2CCC1CC2)C(CO)(c1ccccc1)c1ccccc1 (stereo not given) | inactive: 0.813% [at 57.1 µM]
4 | CN1CC[C@H](OC(=O)[C@](O)(c2ccccc2)C2CCCC2)C1 | inactive: 10.1%
5 | C=C(C)C#C[C@@](O)(C(=O)OC1CCN(C)CC1)c1ccccc1 | inactive: 12%
